This is an account of results in patent publication US6979460B1, “Vinyl ether lipids with cleavable hydrophlic headgroups” (Purdue Research Foundation, priority 1999, dated 2005).

The conditions of data set [1]: micellar solution, 37° C., bacteriochlorophyll a, air-saturated buffer pH 7.4, HPLC.
The conditions of data set [2]: 98:2 DOPE:CVEP:Bchla vesicles. The protocol:
(§1) DOPE and the labile PEG lipid were co-dissolved in chloroform that had been prefiltered through a 2.53 cm plug of anhydrous sodium carbonate to remove traces of acid and water from the solvent. This solution was evaporated under a gentle stream of N2 and further dried under vacuum (<200 μ, 4 h). Vesicles were formed by hydrating the lipid film in the presence of 50 mM calcein using five LN2 freeze-thaw-vortex cycles. This suspension was then extruded at 50° C. through two 100 nm track-etch polycarbonate membrane filters. Extraliposomal calcein was removed using a single pass through a 40 cm Sephadex G-50 gel column equilibrated with 150 mM NaCl. The fraction eluting at the void volume was collected and stored at 8° C. until use. Light-sensitive vesicles were prepared in the same manner, except that bacteriochlorophyll a (Bchl) was codissolved in the chloroform lipid solution. Other agents or mixtures of agents, such as therapeutic compounds or diagnostic agents, are substituted for calcein in the above protocol resulting in liposomal encapsulation of the substituted agent.
(§2) Vesicle release of the liposomes made in example 4 above, was monitored at 37° C. as a function of time using the calcein fluorescence dequenching assay. Acid-trigged release was initiated by dilution of the vesicles into an acidic buffer solution as described by Gerasimov et al. Light-triggered release was promoted by aerobic illumination (800 nm, 1 W) of a continuously stirred 1 cm quartz cuvette with a SDL 820 diode laser coupled to an optical fiber. The fiber was mounted perpendicular to the cuvette surface to produce a spot of ˜3 mm diameter. Both triggering methods were conducted either in the absence or presence of ten-fold excess of egg phosphatidylcholine (EPC) vesicles as a membrane “sink”.

The conditions of data set [3]: micellar solution, 37° C., pH 4.5, 20 mM citrate buffered saline, HPLC.
Data set [4] in a line: Acid-triggered calcein release from DOPE:vinyl ether lipid vesicles (calcein fluorescence dequenching assay). It counts as physicochemical. Conditions: for calcein contents leakage: 98:2 and 96:4 DOPE:CVEP vesicles. The protocol: as §1, §2

Consider “4-o-Cholesteryl-(3Z-buten-1-yl)-polyethylene [125] glycolate [CVEP]”, for which the “disappearance due to photolysis, compared with BVEP” value in data set [1] is reported as “faster”. Further, in data set [2] (pH 7.4, 800 nm illumination, absence of sink EPC), the “calcein release on irradiation” value is “slow release”. For the same substance, the “observed calcein release rate on irradiation” value in data set [2] (pH 7.4, 800 nm illumination, sink lipid present (vs absent)) is listed as “increased significantly”. The “background (dark) calcein leakage” value in data set [2] (pH 7.4, dark, even in the presence of sink EPC) is reported as “not significant”. The “disappearance due to acid-catalyzed hydrolysis, compared with BVEP” value in data set [3] is on record as “faster”. Further, in data set [4] (98:2 DOPE:lipid vesicles (identical loadings), pH 4.5, 37° C.), the t50% release is listed as 220 min. For the same substance, the calcein contents leakage result is reported as “very little contents leakage” in data set [4] (pH 4.5, 37° C., in the absence of sink EPC); “calcein leakage occurs” in data set [4] (pH 4.5, 37° C., in the presence of sink EPC); “very little contents leakage” in data set [4] (pH 7.4, 37° C., sink EPC present or not). The “dependence of rate of calcein leakage on vesicle CVEP content” value in data set [4] (DOPE:CVEP vesicles, pH 4.5, sink conditions) is “lower loadings producing more rapid release rates”.
